## Properties, as collected for the OPERA models

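The OPERA project collected these measurements from public sources as training and test data for property models. A listed value is a point estimate from one report or more. Method and conditions are not stated for these values. The measured form (salt, isomer or mixture) is not always the one drawn. Some upstream entries may be estimates or bounds without being marked so.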

The melting point is given in degrees Celsius.
The boiling point refers to atmospheric pressure (760 mmHg), by the definition of the set.
logP is the log10 of the octanol-water partition coefficient; higher is more lipophilic.
Solubility in water is on a log10 molar scale (set defined at 25 °C).
Vapor pressures (log10 mmHg) refer to near room temperature, 15 to 30 °C; higher is more volatile.
The Henry's law constant is on a log10 scale in atm·m3/mol (set defined at 25 °C); higher favours air over water.
fu is the fraction unbound in human plasma, from 0 to 1.
Intrinsic clearance (human, µL/min per 10^6 hepatocytes): higher is faster turnover, and 0 stands for none detected.

- FC(C(F)(F)F)C(F)(F)F [2h-perfluoropropane]: fu 0.4582; Clint 1 µL/min/10^6 cells
- C1CN(SSN2CCOCC2)CCO1 [4,4'-Dithiodimorpholine]: logP (octanol/water) 2.58; log S -3.26 (log10 mol/L); vapor pressure -4.523 (log10 mmHg)
- CCC(C)OC(C)CC (configuration not stated) [Bis(2-butyl) ether]: logP (octanol/water) 3.11; log S -2.598 (log10 mol/L)
- CCCCCCCC(=O)OCC(CCC)CCCCC (configuration not stated) [2-Propylheptyl octanoate]: MP -38.9 °C; boiling point 319 °C; vapor pressure -2.9 (log10 mmHg)
- Cc1c(Nc2nc(Cl)nc(Nc3cccc(S(=O)(=O)[O-])c3)n2)c(C)c(S(=O)(=O)[O-])c(C)c1Nc1cc(S(=O)(=O)[O-])c(N)c2c1C(=O)c1ccccc1C2=O.[Na+].[Na+].[Na+]: MP 330 °C; logP (octanol/water) -3.88
- CC(=O)O[C@@]12CCC[C@@](C)(CC[C@@H]3[C@@H]1CC3(C)C)C2: MP 6.16 °C; log S -4.221 (log10 mol/L)
- CCC(=O)C(C)=O [2,3-Pentanedione]: log S -0.176 (log10 mol/L); vapor pressure 1.302 (log10 mmHg)
- CC(=CCCC=O)CCCC(C)C: boiling point 235.8 °C; log S -4.091 (log10 mol/L); vapor pressure -1.428 (log10 mmHg)
- CC1CC(C)(C)OC(Cc2ccccc2)O1 (configuration not stated) [2-Benzyl-4,4,6-trimethyl-1,3-dioxane]: logP (octanol/water) 3.9; log S -2.745 (log10 mol/L); vapor pressure -2.292 (log10 mmHg)
- CCCCOCCOC(=O)COc1nc(Cl)c(Cl)cc1Cl [Triclopyr butotyl]: MP 150 °C; log H -6.608 (log10 atm·m3/mol)
- N=c1cc2n(-c3ccccc3)c3cc(Nc4ccccc4)c4c(S(=O)(=O)[O-])cccc4c3nc-2cc1S(=O)(=O)[O-].[Na+].[Na+]: MP 157 °C; logP (octanol/water) -2.39; log S -3.679 (log10 mol/L)
- FC(F)(F)OC1(Cl)OC(F)(F)OC1(F)Cl (configuration not stated): boiling point 76 °C; logP (octanol/water) 4.4; vapor pressure 2.164 (log10 mmHg)
- CCCC1CC(=O)C=C(C)C1 (configuration not stated) [2-Cyclohexen-1-one, 3-methyl-5-propyl-]: logP (octanol/water) 2.65; log S -1.773 (log10 mol/L); vapor pressure -1.358 (log10 mmHg)
- O=C(O)C(F)(F)C(F)(F)C(F)(F)C(F)(F)F [Perfluoropentanoic acid]: log S -3.342 (log10 mol/L); vapor pressure 1.31 (log10 mmHg); log H -4.83 (log10 atm·m3/mol)
- CC1CCC2(C(=O)OC3OC(COC4OC(CO)C(OC5OC(C)C(O)C(O)C5O)C(O)C4O)C(O)C(O)C3O)CCC3(C)C(=CCC4C5(C)CC(O)C(O)C(C)(CO)C5CCC43C)C2C1C (configuration not stated): logP (octanol/water) 0.44; log S -3.986 (log10 mol/L)
- CO[Si](C)(CNc1ccccc1)OC [N-{[Dimethoxy(methyl)silyl]methyl}aniline]: MP -100.2 °C; vapor pressure -2.512 (log10 mmHg)
- C=C(C)C(=O)OCCOC [2-Methoxyethyl methacrylate]: boiling point 175.3 °C; logP (octanol/water) 1.551; vapor pressure -0.65 (log10 mmHg)
- CC1(C)COC(C)(CCCc2ccc(Cl)cc2)N1C(=O)n1ccnc1.CC1(C)COC(C)(CCCc2ccc(Cl)cc2)N1C(=O)n1ccnc1.O=C(O)/C=C/C(=O)O (stereo partly drawn) [Oxpoconazole fumarate]: MP 124 °C; vapor pressure -7.39 (log10 mmHg)

Excerpt, the opening 3 entries:

* FC(C(F)(F)F)C(F)(F)F [2h-perfluoropropane]: fu 0.4582; Clint 1 µL/min/10^6 cells
* C1CN(SSN2CCOCC2)CCO1 [4,4'-Dithiodimorpholine]: logP (octanol/water) 2.58; log S -3.26 (log10 mol/L); vapor pressure -4.523 (log10 mmHg)
* CCC(C)OC(C)CC (configuration not stated) [Bis(2-butyl) ether]: logP (octanol/water) 3.11; log S -2.598 (log10 mol/L)

Source: data files of OPERA 2.9 (Mansouri et al.), github.com/kmansouri/OPERA.